This note sets out measurements from paper PMC9675574 (JCI Insight, 2022).

The Ki is the dissociation constant of the complex between target and ligand, obtained from inhibition or displacement. A higher Ki goes with a looser hold on the target.

The assay deals with T1, mouse trypsin isoform T20 (anionic trypsin) (Mus musculus, UniProt P07146).
T1 construct: made in house; host or cells: Escherichia coli BL21(DE3)
T1 sequence (P07146 24-246): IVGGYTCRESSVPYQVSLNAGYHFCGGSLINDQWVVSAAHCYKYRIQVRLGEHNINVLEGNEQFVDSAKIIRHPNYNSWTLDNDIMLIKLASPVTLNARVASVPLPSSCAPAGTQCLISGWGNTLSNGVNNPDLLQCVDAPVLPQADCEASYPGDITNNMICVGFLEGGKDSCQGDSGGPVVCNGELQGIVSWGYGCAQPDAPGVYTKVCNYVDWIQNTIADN
Put plainly: Competitive inhibition kinetics of trypsin, GPR-pNA substrate. The assay is classed as biochemical. The settings on record: Ki dabigatran, Individual fit, mean ± SD, n = 3.

On to `[H]/N=C(/N)c1ccc(NCc2nc3cc(C(=O)N(CCC(=O)O)c4ccccn4)ccc3n2C)cc1` [dabigatran], for which affinity was put at a Ki of 0.0336 ± 0.0048 µM.
